# Experiment: Side effects reported on questioning during the tests
# Experimental: During the hyperglycemic clamp, glucose (50% w/v) was injected at time zero to increase the plasma glucose to 30 mmol/l (calculated as follows: (30 mmol/l−fasting plasma glucose)×35 mg glucose×weight in kilogram). Plasma glucose was kept at 30 mmol/l by continuous infusion of glucose, which was adjusted according to a bedside measurement of plasma glucose ever 5 minutes. At 45 minutes, 5 g L-arginine monohydrochloride was injected as a bolus during 30 seconds. Blood was sampled 15, 10 and 0 minutes before and 5, 10, 15, 20, 25, 30, 35, 40, 45, 47, 48, 49, 51, 53, 55, 60, 65, 70, 75 and 90 minutes after elevation of plasma glucose. The L-arginine was dissolved in 50 ml of sterilized water and dispensed into glass ampoules and stored at 4° C. until the day of the experiment. Blood was sampled into fluoride tubes for measurement of glucose and into chilled EDTA tubes with aprotinin (500 KIU/ml blood; Trasylol, Bayer, Leverkusen, Germany) for peptide analyses. Tubes were immediately cooled on ice and centrifuged within 20 minutes at 4° C., and plasma was stored at −20° C. until analysis.
# [1] = glucagon test (1 mg I.V.), part one
substance,measurement,setting,value
glucagon,Participants complaining of nausea,[1],75%
same,Participants complaining of reduced well-being,[1],83%
same,Participants complaining of nausea,"glucagon-test, part two",46%
same,Participants complaining of reduced well-being,"glucagon-test, part two",54%
